Experimental data reported in ChEMBL document CHEMBL4715844, “Structure-based virtual screening and biological evaluation of novel non-bisphosphonate farnesyl pyrophosphate synthase inhibitors” (Eur J Med Chem, 2020).

Tests used:
HCT-116 = test: Cytotoxicity against FPPS-positive human HCT116 cells assessed as reduction in cell viability measured after 48 hrs by MTT assay; type: functional, cell-based
LoVo = test: Cytotoxicity against FPPS-positive human Lovo cells assessed as reduction in cell viability measured after 48 hrs by MTT assay; type: functional, cell-based

## COc1ccccc1CN(CCS(=O)(=O)N1CCNCC1)S(=O)(=O)c1ccc(C)cc1
HCT-116
  Activity: Dose-dependent effect
LoVo
  Activity: Dose-dependent effect
